Laboratory results from patent US20240254119A1 (THIRD HARMONIC BIO, INC., priority 2022, published 2024).

Amino acid sequences for entries named in this document (tags omitted). Residues count along the entry.
UniProt Q9UNQ0, whole entry: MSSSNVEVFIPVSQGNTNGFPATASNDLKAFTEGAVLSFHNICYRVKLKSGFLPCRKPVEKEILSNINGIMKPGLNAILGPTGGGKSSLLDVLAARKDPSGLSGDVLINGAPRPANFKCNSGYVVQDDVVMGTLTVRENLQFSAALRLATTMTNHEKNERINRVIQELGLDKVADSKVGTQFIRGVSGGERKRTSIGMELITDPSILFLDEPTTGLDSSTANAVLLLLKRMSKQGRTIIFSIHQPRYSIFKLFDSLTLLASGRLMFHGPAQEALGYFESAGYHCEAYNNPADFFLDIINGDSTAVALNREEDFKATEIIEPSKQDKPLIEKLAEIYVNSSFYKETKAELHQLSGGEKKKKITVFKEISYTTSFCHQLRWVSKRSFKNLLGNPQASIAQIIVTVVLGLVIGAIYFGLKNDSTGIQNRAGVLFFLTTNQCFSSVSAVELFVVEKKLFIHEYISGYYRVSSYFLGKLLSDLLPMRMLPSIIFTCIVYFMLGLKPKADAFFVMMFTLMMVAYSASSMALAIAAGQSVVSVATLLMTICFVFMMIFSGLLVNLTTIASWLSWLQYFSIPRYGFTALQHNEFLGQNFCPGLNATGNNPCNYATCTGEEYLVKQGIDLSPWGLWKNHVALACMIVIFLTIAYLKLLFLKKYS
UniProt P10721, 26-976 limits assumed: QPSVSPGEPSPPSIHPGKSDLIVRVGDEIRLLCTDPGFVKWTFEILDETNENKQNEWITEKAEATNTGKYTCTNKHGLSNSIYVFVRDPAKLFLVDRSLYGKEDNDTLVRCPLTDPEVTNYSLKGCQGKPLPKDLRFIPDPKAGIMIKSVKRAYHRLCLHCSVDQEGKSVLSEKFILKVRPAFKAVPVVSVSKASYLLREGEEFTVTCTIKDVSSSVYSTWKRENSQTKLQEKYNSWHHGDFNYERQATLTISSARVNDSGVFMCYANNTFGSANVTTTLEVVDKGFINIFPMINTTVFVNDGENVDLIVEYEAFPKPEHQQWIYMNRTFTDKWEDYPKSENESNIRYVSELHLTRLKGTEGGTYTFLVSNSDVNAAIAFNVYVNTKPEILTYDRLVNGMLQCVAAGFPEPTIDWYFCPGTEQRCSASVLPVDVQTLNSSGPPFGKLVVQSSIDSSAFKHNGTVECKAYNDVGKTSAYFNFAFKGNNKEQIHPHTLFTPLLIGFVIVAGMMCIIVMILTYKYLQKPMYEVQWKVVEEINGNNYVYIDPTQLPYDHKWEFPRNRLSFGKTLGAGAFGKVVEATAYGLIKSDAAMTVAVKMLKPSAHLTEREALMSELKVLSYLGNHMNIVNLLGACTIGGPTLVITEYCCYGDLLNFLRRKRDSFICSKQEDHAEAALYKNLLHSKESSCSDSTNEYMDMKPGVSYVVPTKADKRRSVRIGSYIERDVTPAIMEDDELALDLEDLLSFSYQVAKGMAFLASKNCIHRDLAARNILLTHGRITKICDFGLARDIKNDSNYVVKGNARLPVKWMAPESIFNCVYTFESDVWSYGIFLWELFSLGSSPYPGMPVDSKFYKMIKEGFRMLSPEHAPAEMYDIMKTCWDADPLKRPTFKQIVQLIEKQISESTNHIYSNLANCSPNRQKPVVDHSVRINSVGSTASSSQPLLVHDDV
UniProt P07333, 20-972 limits assumed: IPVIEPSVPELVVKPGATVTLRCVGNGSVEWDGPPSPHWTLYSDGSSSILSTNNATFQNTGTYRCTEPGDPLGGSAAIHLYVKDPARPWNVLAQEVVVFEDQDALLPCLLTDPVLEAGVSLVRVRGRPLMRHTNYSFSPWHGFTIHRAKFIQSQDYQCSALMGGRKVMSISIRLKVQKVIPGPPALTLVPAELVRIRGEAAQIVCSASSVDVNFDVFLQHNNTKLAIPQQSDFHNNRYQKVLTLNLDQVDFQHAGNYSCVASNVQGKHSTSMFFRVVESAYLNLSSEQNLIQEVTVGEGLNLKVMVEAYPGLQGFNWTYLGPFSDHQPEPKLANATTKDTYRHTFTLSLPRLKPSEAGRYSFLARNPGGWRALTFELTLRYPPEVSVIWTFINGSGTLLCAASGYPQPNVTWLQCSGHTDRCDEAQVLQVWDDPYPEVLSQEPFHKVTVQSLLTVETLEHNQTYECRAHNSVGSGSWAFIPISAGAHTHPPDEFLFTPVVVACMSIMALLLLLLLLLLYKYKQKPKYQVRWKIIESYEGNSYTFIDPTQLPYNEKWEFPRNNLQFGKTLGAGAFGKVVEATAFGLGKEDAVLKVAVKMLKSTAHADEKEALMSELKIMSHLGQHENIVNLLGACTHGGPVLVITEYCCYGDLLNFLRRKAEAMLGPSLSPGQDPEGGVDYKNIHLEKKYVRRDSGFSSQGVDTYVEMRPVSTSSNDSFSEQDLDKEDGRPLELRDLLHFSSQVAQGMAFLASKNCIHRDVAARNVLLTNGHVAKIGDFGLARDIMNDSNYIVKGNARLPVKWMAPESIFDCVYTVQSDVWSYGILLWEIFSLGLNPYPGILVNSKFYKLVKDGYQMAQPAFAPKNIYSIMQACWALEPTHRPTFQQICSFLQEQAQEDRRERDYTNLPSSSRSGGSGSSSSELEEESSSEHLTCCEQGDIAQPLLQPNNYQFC
UniProt P16234, 24-1089 limits assumed: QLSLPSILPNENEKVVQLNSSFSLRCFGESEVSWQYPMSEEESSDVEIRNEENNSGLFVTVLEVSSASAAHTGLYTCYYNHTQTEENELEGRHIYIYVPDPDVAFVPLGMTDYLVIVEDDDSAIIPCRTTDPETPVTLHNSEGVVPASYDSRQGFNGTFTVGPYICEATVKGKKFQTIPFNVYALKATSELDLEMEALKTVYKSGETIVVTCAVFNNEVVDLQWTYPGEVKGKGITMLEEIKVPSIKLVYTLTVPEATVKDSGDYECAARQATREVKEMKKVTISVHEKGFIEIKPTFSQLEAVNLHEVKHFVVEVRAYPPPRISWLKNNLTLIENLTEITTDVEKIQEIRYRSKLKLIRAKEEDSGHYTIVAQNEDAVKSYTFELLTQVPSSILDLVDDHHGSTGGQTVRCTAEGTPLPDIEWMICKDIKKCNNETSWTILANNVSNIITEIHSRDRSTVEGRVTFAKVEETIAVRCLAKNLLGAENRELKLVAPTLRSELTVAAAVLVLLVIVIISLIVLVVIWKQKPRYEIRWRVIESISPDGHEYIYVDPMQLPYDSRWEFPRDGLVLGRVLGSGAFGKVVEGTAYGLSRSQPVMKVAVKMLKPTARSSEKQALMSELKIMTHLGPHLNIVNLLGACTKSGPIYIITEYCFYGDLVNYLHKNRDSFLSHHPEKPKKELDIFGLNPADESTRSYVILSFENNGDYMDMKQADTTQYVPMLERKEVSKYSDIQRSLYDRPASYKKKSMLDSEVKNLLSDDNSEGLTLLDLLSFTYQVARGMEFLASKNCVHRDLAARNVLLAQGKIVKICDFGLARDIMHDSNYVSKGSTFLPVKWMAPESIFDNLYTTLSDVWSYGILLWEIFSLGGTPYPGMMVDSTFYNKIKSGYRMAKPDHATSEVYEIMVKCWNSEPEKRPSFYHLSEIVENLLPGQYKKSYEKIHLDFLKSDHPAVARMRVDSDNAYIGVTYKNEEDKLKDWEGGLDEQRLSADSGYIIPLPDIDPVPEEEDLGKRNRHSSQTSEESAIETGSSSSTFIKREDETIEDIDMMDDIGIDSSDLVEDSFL

Key:
[1] = biological target: BCRP (BCRP-MDCKII monolayer) (Homo sapiens, UniProt Q9UNQ0); assay: MDCKII-BCRP bidirectional transport assay; details: for MDCK-BCRP: Papp A-B: apical to basolateral
[2] = biological target: T1, wtKIT (Homo sapiens, UniProt P10721); assay: Caliper biochemical assay, wtKIT; details: read-out: KIT Biochemical IC50 avg, Table 6
[3] = Kinetic solubility assay; details: 50 mM PB (pH 7.4), shaken 24 hours at RT
[4] = biological target: CSF-1R (Homo sapiens, UniProt P07333); assay: Caliper biochemical assay, CSF-1R; details: read-out: CSF-1R Biochemical IC50, Table 6
[5] = biological target: PDGFRα (Homo sapiens, UniProt P16234); assay: Caliper biochemical assay, PDGFRα; details: read-out: PDGFRα Biochemical Avg IC50, Table 6
[6] = biological target: T1, wtKIT; assay: HTRF biochemical assay, wtKIT (phosphorylation of a peptide substrate); details: read-out: KIT Biochemical IC50 avg, Table 4

Cc1ccc(-c2noc([C@H]3C[C@@H]3F)n2)cc1NC(=O)c1cnc2cc(Nc3ccc(N4CCCCC4)cc3)ccn12
MDCK-BCRP: Efflux Ratio [1]: 71.8
MDCK-BCRP: Papp A-B [1]: 0.000847 ×10⁻⁶ cm/s
IC50 [2]: < 50 nM
Solubility (μM) [3]: **** (a solubility less than or equal to 2 μM)

Cc1ccc(-c2noc(C3CC(F)(F)C3)n2)cc1NC(=O)c1cnc2cc(NS(C)(=O)=O)ccn12
MDCK-BCRP: Efflux Ratio [1]: 28.7
MDCK-BCRP: Papp A-B [1]: 0.58 10^−6 cm/s
IC50 [2]: < 50 nM
IC50 [4]: < 50 nM
Solubility (μM) [3]: ** (a solubility greater than 10 μM and less than or equal to 50 μM)
IC50 [5]: < 50 nM

Cc1ccc(-c2noc(C3CC4CC4N3)n2)cc1NC(=O)c1cnc2ccccn12 (stereo not drawn)
MDCK-BCRP: Efflux Ratio [1]: 3.69
MDCK-BCRP: Papp A-B [1]: 7.81 10^−6 cm/s
IC50 [2]: < 50 nM
Solubility (μM) [3]: ** (a solubility greater than 10 μM and less than or equal to 50 μM)

Cc1ccc(-c2noc(C3CC(F)(c4cccc(F)c4)C3)n2)cc1NC(=O)c1cnc2ccccn12 (stereo not drawn)
MDCK-BCRP: Efflux Ratio [1]: 1.31
MDCK-BCRP: Papp A-B [1]: 0.28 10^−6 cm/s
IC50 [2]: < 50 nM
Solubility (μM) [3]: **** (a solubility less than or equal to 2 μM)

Cc1ccc(-c2noc([C@H]3C[C@@H](F)CN3)n2)cc1NC(=O)c1cnc2ccccn12
IC50 [2]: 50 to 500 nM
IC50 [4]: 50 to 500 nM
Solubility (μM) [3]: * (a solubility greater than 50 μM)
IC50 [5]: 5000 to 30000 nM

COC12CCCCC(c3nc(-c4ccc(C)c(NC(=O)c5cnc6ccccn56)c4)no3)(C1)C2
IC50 [2]: < 50 nM
IC50 [4]: < 50 nM
Solubility (μM) [3]: **** (a solubility less than or equal to 2 μM)
IC50 [5]: 50 to 500 nM

Cc1ccc(-c2noc([C@H]3C[C@@H]3F)n2)cc1NC(=O)c1cnc2ccc(NS(=O)(=O)c3cccc4ccccc34)cn12
IC50 [2]: < 50 nM
IC50 [4]: < 50 nM
Solubility (μM) [3]: **** (a solubility less than or equal to 2 μM)
IC50 [5]: 50 to 500 nM

Cc1ccc(-c2noc(CNS(C)(=O)=O)n2)cc1NC(=O)c1cnc2ccccn12
IC50 [2]: 50 to 500 nM
IC50 [4]: 500 to 5000 nM
Solubility (μM) [3]: ** (a solubility greater than 10 μM and less than or equal to 50 μM)
IC50 [5]: 500 to 5000 nM

COC(=O)N1CC(c2nc(-c3ccc(C)c(NC(=O)c4cnc5ccc(OC(C)CO)cn45)c3)no2)C1 (single isomer, unassigned) [I-203]
IC50 [2]: < 50 nM
IC50 [4]: 50 to 500 nM
Solubility (μM) [3]: **** (a solubility less than or equal to 2 μM)
IC50 [5]: 500 to 5000 nM

COC(=O)N1CC(c2nc(-c3ccc(C)c(NC(=O)c4cnc5ccc(OC(C)CO)cn45)c3)no2)C1 (single isomer, unassigned) [I-202]
IC50 [2]: < 50 nM
IC50 [4]: < 50 nM
Solubility (μM) [3]: *** (a solubility greater than 2 μM and less than or equal to 10 μM)
IC50 [5]: 50 to 500 nM

COC(=O)NC1CC(c2nc(-c3ccc(C)c(NC(=O)c4cnc5ccccn45)c3)no2)C1 (stereo not drawn)
IC50 [2]: 50 to 500 nM
IC50 [4]: 500 to 5000 nM
Solubility (μM) [3]: **** (a solubility less than or equal to 2 μM)
IC50 [5]: 500 to 5000 nM

Cc1ccc(-c2noc([C@@H](C)NS(C)(=O)=O)n2)cc1NC(=O)c1cnc2ccccn12
IC50 [2]: < 50 nM
IC50 [4]: 50 to 500 nM
Solubility (μM) [3]: * (a solubility greater than 50 μM)
IC50 [5]: 500 to 5000 nM

Cc1ccc(-c2noc(C3CCCN3S(C)(=O)=O)n2)cc1NC(=O)c1cnc2ccccn12 (stereo not drawn)
IC50 [2]: < 50 nM
IC50 [6]: 50 to 500 nM
IC50 [4]: 50 to 500 nM
Solubility (μM) [3]: **** (a solubility less than or equal to 2 μM)
IC50 [5]: 500 to 5000 nM

CCNc1ccn2c(C(=O)Nc3cc(-c4noc([C@H]5C[C@@H]5F)n4)ccc3C)cnc2c1
IC50 [2]: < 50 nM
IC50 [4]: < 50 nM
Solubility (μM) [3]: *** (a solubility greater than 2 μM and less than or equal to 10 μM)
IC50 [5]: < 50 nM

Cc1ccc(-c2noc(C3CC3F)n2)cc1NC(=O)c1cnc2ccc(Nc3ccccc3)cn12 (stereo not drawn)
IC50 [2]: < 50 nM
IC50 [4]: < 50 nM
Solubility (μM) [3]: **** (a solubility less than or equal to 2 μM)
IC50 [5]: < 50 nM

CCNc1ccn2c(C(=O)Nc3cc(-c4noc(CC)n4)ccc3C)cnc2c1
IC50 [2]: < 50 nM
IC50 [4]: < 50 nM
Solubility (μM) [3]: **** (a solubility less than or equal to 2 μM)
IC50 [5]: 50 to 500 nM

Cc1ccc(-c2noc(C(C)CO)n2)cc1NC(=O)c1cnc2ccccn12 (single isomer, unassigned) [I-171]
IC50 [2]: < 50 nM
IC50 [4]: 500 to 5000 nM
Solubility (μM) [3]: * (a solubility greater than 50 μM)
IC50 [5]: 500 to 5000 nM

Cc1ccc(-c2noc(C3CC3F)n2)cc1NC(=O)c1cnc2ccc(C3COC3)cn12 (single isomer, unassigned)
IC50 [2]: < 50 nM
IC50 [4]: < 50 nM
Solubility (μM) [3]: **** (a solubility less than or equal to 2 μM)
IC50 [5]: < 50 nM

CNc1ccn2c(C(=O)Nc3cc(-c4noc([C@H]5C[C@@H]5F)n4)ccc3C)cnc2c1
IC50 [2]: < 50 nM
IC50 [4]: < 50 nM
Solubility (μM) [3]: *** (a solubility greater than 2 μM and less than or equal to 10 μM)
IC50 [5]: < 50 nM

Cc1ccc(-c2noc(C34C5CC(CC53)C4(F)F)n2)cc1NC(=O)c1cnc2ccccn12
IC50 [2]: < 50 nM
IC50 [4]: < 50 nM
Solubility (μM) [3]: **** (a solubility less than or equal to 2 μM)
IC50 [5]: 50 to 500 nM

Cc1ccc(-c2noc(C3CC(C)(O)C3)n2)cc1NC(=O)c1cnc2ccccn12 (stereo not drawn)
IC50 [2]: < 50 nM
IC50 [4]: 50 to 500 nM
Solubility (μM) [3]: * (a solubility greater than 50 μM)
IC50 [5]: 50 to 500 nM

Cc1ccc(-c2noc(C(C)CO)n2)cc1NC(=O)c1cnc2ccccn12 (single isomer, unassigned) [I-170]
IC50 [2]: 500 to 5000 nM
IC50 [4]: < 50 nM
Solubility (μM) [3]: ** (a solubility greater than 10 μM and less than or equal to 50 μM)
IC50 [5]: 500 to 5000 nM

CCCS(=O)(=O)N1CC(c2nc(-c3ccc(C)c(NC(=O)c4cnc5cc(NCC)ccn45)c3)no2)C1
IC50 [2]: < 50 nM
IC50 [4]: < 50 nM
Solubility (μM) [3]: **** (a solubility less than or equal to 2 μM)
IC50 [5]: 50 to 500 nM

Cc1cc(C)c(-c2noc(C3CC3F)n2)cc1NC(=O)c1cnc2ccccn12 (stereo not drawn)
IC50 [2]: < 50 nM
IC50 [4]: < 50 nM
Solubility (μM) [3]: **** (a solubility less than or equal to 2 μM)
IC50 [5]: 50 to 500 nM

Cc1ccc(-c2noc([C@H]3C[C@@H]3F)n2)cc1NC(=O)c1cnc2cc(NS(=O)(=O)c3cccs3)ccn12
MDCK-BCRP: Efflux Ratio [1]: 8.45
MDCK-BCRP: Papp A-B [1]: 1.54 10^−6 cm/s
IC50 [2]: < 50 nM
IC50 [6]: 50 to 500 nM
Solubility (μM) [3]: *** (a solubility greater than 2 μM and less than or equal to 10 μM)

Cc1ccc(-c2noc(C3CCO3)n2)cc1NC(=O)c1cnc2ccccn12 (stereo not drawn)
IC50 [2]: < 50 nM
IC50 [4]: 50 to 500 nM
Solubility (μM) [3]: ** (a solubility greater than 10 μM and less than or equal to 50 μM)
IC50 [5]: 500 to 5000 nM

Cc1ccc(-c2noc(C3CC3F)n2)cc1NC(=O)c1cnc2cc(N(C)C)ccn12 (stereo not drawn)
IC50 [2]: < 50 nM
IC50 [6]: < 50 nM
IC50 [4]: < 50 nM
Solubility (μM) [3]: **** (a solubility less than or equal to 2 μM)
IC50 [5]: < 50 nM

CO[C@@H]1C[C@@H](c2nc(-c3ccc(C)c(NC(=O)c4cnc5ccccn45)c3)no2)C12CCC2 (relative stereo)
MDCK-BCRP: Efflux Ratio [1]: 1.03
MDCK-BCRP: Papp A-B [1]: 14.7 10^−6 cm/s
IC50 [2]: < 50 nM
Solubility (μM) [3]: **** (a solubility less than or equal to 2 μM)
